A word on the pIC50: it is the negative decadic logarithm of the IC50, by convention in mol/L. A lower pIC50 goes with a high IC50.

For one compound, IC50 results are on record in ChEMBL document CHEMBL1772984, “Inhibitor selectivity of a new class of oseltamivir analogs against viral neuraminidase over human neuraminidase enzymes” (Bioorg Med Chem, 2011).

This assay has as its target T1, Sialidase-4 (Homo sapiens, UniProt Q8WWR8).
T1 sequence (Q8WWR8 whole entry): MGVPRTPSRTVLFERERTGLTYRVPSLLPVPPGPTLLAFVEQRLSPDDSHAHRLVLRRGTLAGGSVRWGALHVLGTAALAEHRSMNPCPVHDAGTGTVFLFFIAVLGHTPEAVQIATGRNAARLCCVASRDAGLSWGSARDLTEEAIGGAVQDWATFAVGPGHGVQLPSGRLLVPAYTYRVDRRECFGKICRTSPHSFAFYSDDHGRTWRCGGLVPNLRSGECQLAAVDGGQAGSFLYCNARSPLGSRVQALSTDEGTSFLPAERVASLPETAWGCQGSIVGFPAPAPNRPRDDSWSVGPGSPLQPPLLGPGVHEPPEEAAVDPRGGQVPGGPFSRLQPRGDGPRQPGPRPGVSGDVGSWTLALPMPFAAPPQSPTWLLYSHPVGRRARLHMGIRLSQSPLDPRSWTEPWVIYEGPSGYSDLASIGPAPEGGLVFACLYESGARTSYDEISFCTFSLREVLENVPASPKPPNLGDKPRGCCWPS
Kind of assay: Inhibition of human NEU4 using 4MU-NA as substrate after 1 hr by fluorescence assay. The essentials:
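Recombinant human NEU4 was used as a GST fusion, expressed in E. coli BL21(DE3) pLysS and glutathione-agarose purified. Enzyme (0.1 mg/mL before mixing) was preincubated 30 min at 37 °C with inhibitor (eight serial-dilution concentrations, five replicates). 4MU-NA was added from a 1 mM stock in 0.1 M sodium acetate pH 4.5 for 1 h.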

pIC50: −log10 of the molar value.

Regarding `CC(=O)N[C@H]1[C@H]([C@H](O)[C@H](O)CO)OC(C(=O)O)=C[C@@H]1O` [NEU5AC2EN], the pIC50 was 4.66.
